The source of these data is article PMC4556315.

In the assay the target is NO66^176–C mutant M2 fused to the SUMO tag (human) (UniProt Q9H6W3). Nature of the assay: ITC; 287 K; 40 µl GST-Rpl8^193–C (270 µM stock) injected into 15 µM NO66 protein in buffer D (50 mM Tris-HCl pH 7.5, 300 mM NaCl, 20 µM NiCl2) with 60 µM αKG; one-site binding model.

In the case of “GST-Rpl8^193–C (from UniProt P62917 193-257) (domain or fragment)”, the Kd (commonly the concentration at which binding is half-saturated) was found to be 4.67 µM.
